Results on one substance are retold here after patent US7763605B2, “[1,4]benzodiazepines as vasopressin V2 receptor antagonists” (Janssen Pharmaceutica, N.V., priority 2004, dated 2010).

Assay [1] concerns the target T1, human V2 receptor (Homo sapiens, UniProt P30518).
T1 construct: expressed in transfected cells; host or cells: HEK-293
The assay can be described thus: In vitro recombinant vasopressin receptor binding assay (3H-arginine vasopressin displacement), V2. To be noted: cloned human receptor membranes from HEK-293 cells. The method, then: Compounds were assessed for their ability to displace ^3H-arginine vasopressin from the human V-1 or V-2 receptor in HEK-293 cells. Assay buffer is 50 mM Tris-Cl, 5 mM MgCl2, 0.1% BSA (pH 7.5) containing 5 ug/ml of aprotinin, leupeptin, pepstatin, 50 ug/ml bacitracin, and 1 mM Pefabloc. ^3H-vasopressin is ^3H-arginine-8-vasopressin (68.5 Ci/mmol, final concentration in assay is 0.65-0.75 nM). Into wells of 96-well round bottom polypropylene plates were added buffer, test compound, membrane (containing cloned human V-1 or V-2 receptor), and ^3H-vasopressin. The reaction plates were allowed to sit at room temperature for one hour. The samples were filtered through Unifilter GF/C plates (presoaked in 0.3 polyethyleneimine). The plates were washed 5 times with cold physiological saline containing 0.05% Tween 20. After drying, the bottom of the filter plates were sealed and 0.025 ml of Microscint-20 was added to each filter. The top of the plate was sealed, and the plate was counted. Non-specific binding was determined by the addition of 1.25 uM arginine-8-vasopressin in those wells.

The target in assay [2] is T1, human V2 receptor. The assay can be described thus: Inhibition of AVP-induced cAMP accumulation in transfected HEK-293 cells expressing human V2 receptor. Type of assay: cell-based. Particulars: AVP 1 nM, HEK-293 expressing human V2, read-out: Functional V2 (IC50; μM). The method, then:
HEK-293 cells were grown in DMEM media supplemented with 10% FBS and glutamine (Gibco BRL, Grand Island, N.Y.). Once transfected, the cells were passed biweekly by trypsinization and seeded into 96 well plates at 33,000 cells per well. HEK-293 were transfected with human V1a, V1b or V2 DNA using DMRIE-C reagent from Life Technologies, Inc., Grand Island, N.Y. Cells were tested for their responsiveness to vasopressin 48 h after transfection. Stable lines were generated by selecting cells grown in culture media containing geneticin (500 μg/mL, Life Technologies).
The accumulation of cAMP was measured in transfected HEK-293 expressing the human V2 receptor. The cells were cultured 4-7 d in 96-well plates. On the day of testing in this assay, cells were washed twice in assay media (DMEM/F12 containing 0.1% BSA). […] The cAMP content of 20 μL of the cell lysate in each well was measured using cAMP Flashplates (NEN Life Sciences). Data are expressed as pmol cAMP/well. While the assay is optimized to detect and quantitate antagonistic activity, agonistic activity would also be apparent at the higher concentrations of test compounds.
The data from the cAMP accumulation and the calcium mobilization assays are expressed as IC50 values as determined from dose response curves.

Turning to “(S)-Biphenyl-2-carboxylic acid [3-chloro-4-(4-methyl-3-morpholino-4-ylmethyl-2,3,4,5-tetrahydrobenzo[e][1,4]diazepine-1-carbonyl)-phenyl]-amide ditrifluoroacetate [Cpd 5]”, the results for the IC50 on human V2 receptor [1] and at human V2 receptor [2] were 0.16 µM and 0.775 µM, respectively.
